Literature values as cited in publication PMC7849011, “Defining the Antimalarial Activity of Cipargamin in Healthy Volunteers Experimentally Infected with Blood-Stage Plasmodium falciparum” (Antimicrobial Agents and Chemotherapy, 2021).

Tested on: P. falciparum
Conditions: 800 mg single dose, IBSM; cited from earlier work

ferroquine
parasite clearance half-life: 6.5 h
